From patent publication US12043621B2, “Small molecule inhibitors of Interleukin-4” (Trustees of Boston University, priority 2020, dated 2024)

Chains of the proteins cited; added tags and fusions are not shown. Residues count along the entry.
UniProt P05112, 25-153 limits assumed: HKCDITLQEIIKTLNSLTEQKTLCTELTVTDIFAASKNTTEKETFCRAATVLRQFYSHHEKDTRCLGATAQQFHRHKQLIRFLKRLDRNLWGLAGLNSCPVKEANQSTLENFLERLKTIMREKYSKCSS

Target: IL-4 (Homo sapiens, UniProt P05112)
Test: HEK-Blue IL-4/IL-13 cell-based reporter (SEAP) IL-4 inhibition assay
Settings: percent activity in HEK-Blue IL-4/IL-13
Protocol: HEK-Blue IL-4/IL-13 cells were purchased from Invivogen and maintained in DMEM complete with 10% fetal bovine serum, 10 μg/ml of blasticidin and 100 μg/ml of Zeocin, 100 μg/mL Normocin, and 100 U/mL-100 μg/mL Pen-Strep. Cells used for assays were between passages 12 and 18. […] HEK-Blue IL-4/IL-13 cells were trypsinized, spun down, and resuspended in DMEM with 10% heat-inactivated FBS, and 100 U/mL-100 μg/mL Pen-Strep at a concentration of 3.125E5/mL. 160 μL of the cell suspension was added to each well of a 96 well plate, avoiding the edges of the plate and equilibrated in an incubator for 1 hour. After 2 hours, 40 μL of the small molecule/IL-4 solution was added to each well. Each measurement performed in quadruplicate. Cells were incubated for 20 hours at 37° C./5% CO2. […] The optical density was then read at 650 nm with a Molecular Devices SpectraMax M5 Microplate Reader. Data was plotted and analyzed in GraphPad Prism 8.
HEK-Blue IL-4/IL-13 cells were purchased from Invivogen and maintained in DMEM complete with 10% fetal bovine serum, 10 μg/ml of blasticidin and 100 μg/ml of Zeocin, 100 μg/mL Normocin, and 100 U/mL-100 μg/mL Pen-Strep. […] Prior to screening small molecules, the SEAP production induced by IL-4 alone was tested in the cells (FIG. 13) and determined to be 0.3 ng/mL. […]

SMILES: COc1ccc(-c2nc(N)c(C#N)c(-c3ccc(O)c(O)c3)c2C)cc1
- Activity at 1 uM (1 uM): 81.51
- Activity at 10 uM (10 uM): 3.225
